## Curated experimental data: properties

From the experimental data distributed with OPERA 2.9.

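These are experimental values that the OPERA curators gathered from public databases to train and test their QSAR models. A listed value is a point estimate from one report or more. Method and conditions are not stated for these values. The measured form (salt, isomer or mixture) is not always the one drawn. Some entries may be limits or estimates that an upstream database listed as plain numbers.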

Melting points are in °C. The boiling point refers to atmospheric pressure (760 mmHg), by the definition of the set. logP is the log10 of the octanol-water partition coefficient; higher is more lipophilic. Water solubility is log10 of mol/L, nominally at 25 °C; higher is more soluble. Vapor pressure is log10 of mmHg; the set covers 15 to 30 °C, mostly 20 to 25 °C. fu is the fraction unbound in human plasma, from 0 to 1. Intrinsic clearance (human, µL/min per 10^6 hepatocytes): higher is faster turnover, and 0 stands for none detected. "–" marks a cell with nothing listed here.

| SMILES | name | MP (°C) | bp (°C) | logP (octanol/water) | log S (log10 mol/L) | log VP (log10 mmHg) | fu | intrinsic clearance (µL/min/10^6 cells) |
|---|---|---|---|---|---|---|---|---|
| Nc1ccccc1S(=O)(=O)O | Orthanilic acid | – | – | – | -1.747 | -6.694 | – | – |
| Cc1cc(C)c(O)c(C(c2cc(C)cc(C)c2O)C(C)C)c1 | Phenol, 2,2'-(2-methylpropylidene)bis[4,6-dimethyl- | 162 | – | – | -6.167 | -7.527 | – | – |
| Cc1cc(C2(c3cc(C)c(O)cc3C)OS(=O)(=O)c3ccccc32)c(C)cc1O | P-xylenol blue | – | – | – | – | – | 0.0261 | 0 |
| Nc1nc(=O)c2ncn(CCC(CO)CO)c2[nH]1 | Penciclovir | – | – | -1.1 | -2.173 | – | – | – |
| Clc1cc(-c2c(Cl)c(Cl)c(Cl)c(Cl)c2Cl)c(Cl)c(Cl)c1Cl | 2,2',3,3',4,4',5,5',6-Nonachlorobiphenyl | 205 | – | – | -10.27 | -6.115 | – | – |
| NCCC(O)(P(=O)(O)O)P(=O)(O)O | Pamidronic acid | – | – | -4.7 | -1.173 | – | – | – |
| O=C(CCCl)OCCCCCl | 4-Chlorobutyl 3-chloropropanoate | -62 | 236.4 | – | -2.407 | -2.921 | – | – |
| Brc1ccc(Oc2cccc(Br)c2)cc1 | 1-Bromo-3-(4-bromophenoxy)benzene | 20 | – | – | – | -4.073 | – | – |
| O=C(O)c1cc(C(=O)O)cc(C(=O)O)c1 | 1,3,5-Benzenetricarboxylic acid | 370.8 | – | 1.35 | – | -14.96 | – | – |
| CC(C)=CCCC(C)=CCCC=O | 5,9-Dimethyl-4,8-decadienal | – | – | 4.4 | -3.538 | -1.779 | – | – |
| CCOC(=O)c1ccc(N)cc1 | Benzocaine | – | – | – | – | -3.585 | 0.338 | 132 |
| C1=CCC(C2OCC3(CO2)COC(C2CC=CCC2)OC3)CC1 (stereo not drawn) | 3,9-Dicyclohex-3-enyl-2,4,8,10-tetraoxaspiro[5.5]undecane | 91.1 | – | 5.45 | -5.242 | -6.627 | – | – |
| CC(=O)[O-].CCN(CC)c1ccc([C+](c2ccc(N(CC)CC)cc2)c2ccc(N(CC)CC)cc2)cc1 | Tris(4-(diethylamino)phenyl)methylium acetate | – | – | 1.959 | – | -5.592 | – | – |
| Nc1ncccc1Br | 2-Amino-3-bromopyridine | – | – | 1.5 | – | -2.038 | – | – |
| CC(=O)OC[C@H]1O[C@@](COC(=O)C(C)C)(O[C@H]2O[C@H](COC(C)=O)[C@@H](OC(=O)C(C)C)[C@H](OC(=O)C(C)C)[C@H]2OC(=O)C(C)C)[C@@H](OC(=O)C(C)C)[C@@H]1OC(=O)C(C)C | Saccharose acetate isobutyrate | – | – | – | -6.074 | -7.71 | – | – |
| NC(=O)C1CCCN1C(=O)COC(=O)c1ccccc1 (stereo not drawn) | 2-(2-Carbamoyl-1-pyrrolidinyl)-2-oxoethyl benzoate | 194 | – | – | -2.265 | – | – | – |
| O=C(O)CCC1(CCC(=O)O)CCCC(CCC(=O)O)(CCC(=O)O)C1=O | 2-Oxocyclohexane-1,1,3,3-tetrapropionic acid | 178.3 | – | – | -2.11 | -6.011 | – | – |
| CN1[C@@H]2CCC[C@H]1C[C@@H](NC(=O)c1nn(C)c3ccccc13)C2 | Granisetron | 219 | – | 2.6 | -2.857 | – | – | 7.009 |
| CCOc1ccc(C2(C(=O)OC(C#N)c3cccc(Oc4ccccc4)c3)CC2(Cl)Cl)cc1 (stereo not drawn) | Cycloprothrin | – | – | 5.8 | -6.719 | -7.797 | – | – |
| COc1cc2c(Nc3ccc(Br)cc3F)ncnc2cc1OCC1CCN(C)CC1 | Vandetanib | – | – | 5 | -3.481 | – | – | – |
| C=C(C)C(=O)OCCCCCC | n-Hexyl methacrylate | – | – | 4.27 | -3.755 | -0.745 | – | – |
| CCCCCCCCCc1cc(C)cc(Cc2cc(C)cc(CCCCCCCCC)c2O)c1O | Phenol, 2,2'-methylenebis[4-methyl-6-nonyl- | -19.8 | 584 | – | -6.478 | -4.658 | – | – |
| O=C=Nc1ccc(C(c2ccc(N=C=O)cc2)c2ccc(N=C=O)cc2)cc1 (stereo not drawn) | Benzene, 1,1',1''-methylidynetris[4-isocyanato- | 74.4 | – | – | – | -6.546 | – | – |
| O=S(=O)([O-])c1cc(Nc2nc(Nc3ccccc3)nc(N3CCOCC3)n2)ccc1/C=C/c1ccc(Nc2nc(Nc3ccccc3)nc(N3CCOCC3)n2)cc1S(=O)(=O)[O-].[Na+].[Na+] | – | – | – | -1.54 | -2.711 | – | – | – |
| CCCCCCCCC=COCC | 1-Decene, 1-ethoxy- | – | 220.8 | – | -7.087 | -1.239 | – | – |
| CCN(CC[N+](C)(C)C)c1ccc(/N=N/c2ccc([N+](=O)[O-])cc2Cl)cc1.[Cl-] | C.I. Basic Red 18 | – | – | 0.364 | -3.039 | – | – | – |

A selection of 4 entries from above:

SMILES	name	MP (°C)	bp (°C)	logP (octanol/water)	log S (log10 mol/L)	log VP (log10 mmHg)	fu	intrinsic clearance (µL/min/10^6 cells)
CCOC(=O)c1ccc(N)cc1	Benzocaine	–	–	–	–	-3.585	0.338	132
NCCC(O)(P(=O)(O)O)P(=O)(O)O	Pamidronic acid	–	–	-4.7	-1.173	–	–	–
O=S(=O)([O-])c1cc(Nc2nc(Nc3ccccc3)nc(N3CCOCC3)n2)ccc1/C=C/c1ccc(Nc2nc(Nc3ccccc3)nc(N3CCOCC3)n2)cc1S(=O)(=O)[O-].[Na+].[Na+]	–	–	–	-1.54	-2.711	–	–	–
CCCCCCCCCc1cc(C)cc(Cc2cc(C)cc(CCCCCCCCC)c2O)c1O	Phenol, 2,2'-methylenebis[4-methyl-6-nonyl-	-19.8	584	–	-6.478	-4.658	–	–